Test results published in patent US20060024786.

Tests used:
[1] = biological target: full length human N-WASP (Myc-N-WASP-TAP)
[2] = biological target: full length human WASP (Myc-WASP-TAP)

B1: N_GST_tev_Cdc42 GTP (bacterial GST tagged Cdc42 protein) (protein)
chain: MSPILGYWKIKGLVQPTRLLLEYLEEKYEEHLYERDEGDKWRNKKFELGLEFPNLPYYIDGDVKLTQSMAIIRYIADKHNMLGGCPKERAEISMLEGAVLDIRYGVSRIAYSKDFETLKVDFLSKLPEMLKMFEDRLCHKTYLNGDHVTHPDFMLYDALDVVLYMDPMCLDAFPKLVCFKKRIEAIPQIDKYLKSSKYIAWPLQGWQATFGGGDHPPKSDLVPRPWSNQTSLYKKAGFENLYFQGQTIKCVVVGDVAVGKTCLLISYTTNKFPSEYVPTVFDNYAVTVMIGGEPYTLGLFDTAGQEDYDRLRPLSYPQTDVFLVCFSVVSPSSFENVKEKWVPEITHHCPKTPFLLVGTQIDLRDDPSTIEKLAKNKQKPITPETAEKLARDLKAVKYVECSALTQRGLKNVFDEAILAALEPPETQPKRKCCIF
Barbed ends % of max. (after subtracting baseline) [1]: 9%
Barbed ends, nM (pyrene-actin polymerization assay) [1]: 1.3 nM
Barbed ends % of max. (after subtracting baseline) [2]: 87%
